Results reported in patent US6001867A, “1-aryl-dibenzothiophenes” (American Home Products Corporation, priority 1999, dated 1999).

Chains of the proteins cited; added tags and fusions are not shown. Lines headed by an entry give the natural chain unless they say otherwise; changes in a name come on top.
UniProt P18031: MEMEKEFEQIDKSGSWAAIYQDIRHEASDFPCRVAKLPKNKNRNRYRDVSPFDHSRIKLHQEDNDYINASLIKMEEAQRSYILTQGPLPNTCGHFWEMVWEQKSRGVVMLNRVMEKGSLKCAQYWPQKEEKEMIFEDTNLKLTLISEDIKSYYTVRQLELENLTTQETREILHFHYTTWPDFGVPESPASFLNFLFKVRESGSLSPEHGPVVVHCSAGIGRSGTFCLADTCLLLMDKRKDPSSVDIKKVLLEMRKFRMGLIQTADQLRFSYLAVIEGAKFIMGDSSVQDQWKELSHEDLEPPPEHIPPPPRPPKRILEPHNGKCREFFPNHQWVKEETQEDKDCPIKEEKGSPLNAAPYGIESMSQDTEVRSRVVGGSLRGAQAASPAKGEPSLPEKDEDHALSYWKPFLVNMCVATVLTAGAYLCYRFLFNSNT

Molecular target: Human recombinant PTP1B (hPTP1B) (Homo sapiens, UniProt P18031)
Experiment: Inhibition of tri-phosphorylated insulin receptor dodecaphosphopeptide dephosphorylation by hPTP1B (malachite green)
Settings: insulin receptor 1142-1153 triphosphopeptide substrate, pH 7.4, 37° C.

Substance: Ammonium molybdate tetrahydrate
- IC50: 8.7 µM
